Data on four compounds can be found in ChEMBL document CHEMBL1135047, “Discovery of 5-hydroxyalkyl-4-phenylpyridines as a new class of glucagon receptor antagonists” (Bioorg Med Chem Lett, 2002).

Amino acid sequences for entries named in this document (tags omitted).
UniProt P47871, whole entry: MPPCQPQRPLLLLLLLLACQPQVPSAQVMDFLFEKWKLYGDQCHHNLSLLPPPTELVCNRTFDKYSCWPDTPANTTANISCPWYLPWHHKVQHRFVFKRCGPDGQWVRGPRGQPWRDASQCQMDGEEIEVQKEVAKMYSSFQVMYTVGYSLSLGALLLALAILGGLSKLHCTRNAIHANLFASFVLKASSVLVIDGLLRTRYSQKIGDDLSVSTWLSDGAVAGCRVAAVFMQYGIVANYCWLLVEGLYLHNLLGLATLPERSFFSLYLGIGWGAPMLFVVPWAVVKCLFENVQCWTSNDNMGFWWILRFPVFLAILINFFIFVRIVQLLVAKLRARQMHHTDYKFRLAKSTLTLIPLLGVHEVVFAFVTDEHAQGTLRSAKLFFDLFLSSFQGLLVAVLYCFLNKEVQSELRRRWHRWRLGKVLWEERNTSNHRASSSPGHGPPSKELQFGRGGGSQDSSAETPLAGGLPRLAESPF

The target of the experiment is Glucagon receptor (Homo sapiens, UniProt P47871). Put plainly: Inhibitory concentration against binding to the human glucagon receptor (hGR).
Regarding `CCCc1c(C(C)C)nc(C(C)C)c([C@@H](C)O)c1-c1ccc(F)cc1` (single isomer, unassigned), the half-inhibitory concentration (IC50) stood at 110 nM.
Take `CCCCCCc1c(C(C)C)nc(C(C)C)c(C(C)O)c1-c1ccc(F)cc1` (centres undefined): the IC50 stood at 240 nM.
The result for `CCCc1c(C(C)C)nc(C(C)C)c(C(C)O)c1-c1ccc(F)cc1` (centres undefined) reads 220 nM.
The compound `CCCCCCc1c(C(C)C)nc(C(C)C)c([C@@H](C)O)c1-c1ccc(F)cc1` (single isomer, unassigned) registered a half-inhibitory concentration (IC50) of 120 nM.
